Biological target: Casein kinase II (Homo sapiens, UniProt P19784+P67870+P68400)
Assay: Inhibition of human recombinant CK2 by radiometric assay
Type: protein-complex assay

The chains behind the UniProt entries cited, without tags or fusion partners.
UniProt P19784, whole entry: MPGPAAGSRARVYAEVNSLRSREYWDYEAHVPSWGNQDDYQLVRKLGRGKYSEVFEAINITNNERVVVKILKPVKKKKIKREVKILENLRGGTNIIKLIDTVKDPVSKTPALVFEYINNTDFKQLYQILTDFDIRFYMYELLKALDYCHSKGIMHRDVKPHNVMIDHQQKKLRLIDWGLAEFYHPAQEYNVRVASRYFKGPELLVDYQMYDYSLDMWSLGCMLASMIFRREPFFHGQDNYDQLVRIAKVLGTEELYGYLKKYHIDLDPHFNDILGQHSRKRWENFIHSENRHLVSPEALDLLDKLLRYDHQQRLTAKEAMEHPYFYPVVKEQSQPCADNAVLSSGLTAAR
UniProt P67870, whole entry: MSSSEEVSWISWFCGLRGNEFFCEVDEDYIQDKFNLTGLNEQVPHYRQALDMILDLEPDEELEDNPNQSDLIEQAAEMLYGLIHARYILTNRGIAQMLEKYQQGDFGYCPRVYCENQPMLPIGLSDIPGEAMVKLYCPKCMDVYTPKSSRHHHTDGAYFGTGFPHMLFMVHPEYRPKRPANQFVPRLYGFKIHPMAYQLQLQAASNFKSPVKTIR
UniProt P68400, whole entry: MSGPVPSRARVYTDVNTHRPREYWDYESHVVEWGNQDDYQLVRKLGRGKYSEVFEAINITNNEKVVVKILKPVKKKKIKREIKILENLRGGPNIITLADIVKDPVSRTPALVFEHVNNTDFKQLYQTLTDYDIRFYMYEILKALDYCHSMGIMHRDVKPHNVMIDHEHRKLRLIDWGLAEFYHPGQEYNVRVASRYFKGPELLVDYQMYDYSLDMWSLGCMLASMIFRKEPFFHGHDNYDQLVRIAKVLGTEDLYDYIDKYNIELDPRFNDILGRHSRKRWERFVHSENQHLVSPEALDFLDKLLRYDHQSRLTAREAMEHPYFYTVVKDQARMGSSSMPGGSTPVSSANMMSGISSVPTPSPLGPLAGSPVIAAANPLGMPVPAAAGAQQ

IC50 | Compound
> 750 nM | CN(C)c1ncc2c(n1)c(Nc1cccc(Cl)c1)nc1cc(C(=O)O)ccc12
> 750 nM | CCOc1ncc2c(n1)c(Nc1cccc(C(F)(F)F)c1)nc1cc(C(=O)O)ccc12
> 750 nM | NC(=O)c1ccc2c(c1)nc(Nc1cccc(C(F)(F)F)c1)c1nc(NC3CC3)ncc12

Reference: ChEMBL document CHEMBL1681725, “Novel potent pyrimido[4,5-c]quinoline inhibitors of protein kinase CK2: SAR and preliminary assessment of their analgesic and anti-viral properties” (Bioorg Med Chem Lett, 2011)
